According to publication PMC11316256:

What was measured:
Human IgG4κ (human) [1] = experiment: SPR; Biacore S200; IgG subclasses amine-coupled to a CM5 chip; sCD177 125-16,000 nM injected in 1×HBS-P+ at 30 µl/min; multicycle kinetics, global fit, 1:1 Langmuir model; KD = koff/kon
Human IgG1κ (human) [2] = experiment: SPR; Biacore S200; IgG subclasses amine-coupled to a CM5 chip; sCD177 125-16,000 nM in 1×HBS-P+; KD from the concentration-dependence of the steady-state signal
Human IgG4κ (human) [3] = experiment: as above
Human IgG2κ (human) [4] = experiment: as above
Human IgG3κ (human) [5] = experiment: as above
Human IgG1κ (human) [6] = experiment: SPR; Biacore S200; IgG subclasses amine-coupled to a CM5 chip; sCD177 125-16,000 nM injected in 1×HBS-P+ at 30 µl/min; multicycle kinetics, global fit, 1:1 Langmuir model; KD = koff/kon
Human IgG4κ (human) [7] = experiment: as above; remark: listed apart in the source
Human IgG2κ (human) [8] = experiment: as above
Human IgG3κ (human) [9] = experiment: as above

- Kd (Human IgG4κ (human) [1]): 1.97 µM
- Kd (Human IgG1κ (human) [2]): 29.7 µM
- Kd (Human IgG4κ (human) [3]): 41.2 µM
- Kd (Human IgG2κ (human) [4]): 30.3 µM
- Kd (Human IgG3κ (human) [5]): 40.7 µM
- Kd (Human IgG1κ (human) [6]): 1.77 µM
- koff (Human IgG1κ (human) [6]): 0.00539 s⁻¹
- kon (Human IgG1κ (human) [6]): 3040 M⁻¹ s⁻¹
- Kd (Human IgG4κ (human) [7]): 1.2 µM
- koff (Human IgG4κ (human) [7]): 0.00401 s⁻¹
- kon (Human IgG4κ (human) [7]): 3350 M⁻¹ s⁻¹
- Kd (Human IgG2κ (human) [8]): 2.8 µM
- koff (Human IgG2κ (human) [8]): 0.00937 s⁻¹
- kon (Human IgG2κ (human) [8]): 3350 M⁻¹ s⁻¹
- Kd (Human IgG3κ (human) [9]): 1.61 µM
- koff (Human IgG3κ (human) [9]): 0.00494 s⁻¹
- kon (Human IgG3κ (human) [9]): 3070 M⁻¹ s⁻¹
B1: soluble CD177 (sCD177), extracellular domain residues 1-408 (domain or fragment)
chain: LLCQFGTVQHVWKVSDLPRQWTPKNTSCDSGLGCQDTLMLIESGPQVSLVLSKGCTEAKDQEPRVTEHRMGPGLSLISYTFVCRQEDFCNNLVNSLPLWAPQPPADPGSLRCPVCLSMEGCLEGTTEEICPKGTTHCYDGLLRLRGGGIFSNLRVQGCMPQPGCNLLNGTQEIGPVGMTENCNRKDFLTCHRGTTIMTHGNLAQEPTDWTTSNTEMCEVGQVCQETLLLLDVGLTSTLVGTKGCSTVGAQNSQKTTIHSAPPGVLVASYTHFCSSDLCNSASSSSVLLNSLPPQAAPVPGDRQCPTCVQPLGTCSSGSPRMTCPRGATHCYDGYIHLSGGGLSTKMSIQGCVAQPSSFLLNHTRQIGIFSAREKRDVQPPASQHEGG
